This test has as its target human phosphodiesterase-3A (Homo sapiens, UniProt Q14432). Put plainly: PDE3 Assay ([3H]cAMP to 5'AMP, SPA). Conditions: read-out: PDE3 IC50; human recombinant PDE3A expressed in Sf9 cells; 450 nM cAMP; 20 min at 22° C. The procedure:
Evaluation of the effects of compounds on the activity of the human phosphodiesterase-3A is quantified by measuring the formation of 5′AMP from cAMP using a human recombinant is enzyme expressed in a clonal isolate of Spodoptera frugiperda cells (Sf9) cells.
The test compound, reference compound or water (control) are added to a buffer containing 40 mM tris(hydroxymethyl)aminomethane (Tris)/HCl (pH 7.4) and 8 mM MgCl2, 450 nMcAMP and 0.25 μCi [^3H]cAMP.
Thereafter, the reaction is initiated by addition of the enzyme (about 1U) and the mixture is incubated for 20 min at 22° C.
For basal control measurements, the enzyme is omitted from the reaction mixture.
Following incubation SPA beads are added. After 30 min at 22° C. under shaking, the amount of [^3H]5′AMP is quantified with a scintillation counter (Topcount, Packard).
The results are expressed as a percent inhibition of the control enzyme activity. The standard inhibitory reference compound is milrinone (CAS number 78415-72-2), which is tested in each experiment at several concentrations to obtain an inhibition curve from which its IC50 value is calculated.

By UniProt entry, the sequences of proteins in these tests, tags left out.
UniProt Q14432, whole entry: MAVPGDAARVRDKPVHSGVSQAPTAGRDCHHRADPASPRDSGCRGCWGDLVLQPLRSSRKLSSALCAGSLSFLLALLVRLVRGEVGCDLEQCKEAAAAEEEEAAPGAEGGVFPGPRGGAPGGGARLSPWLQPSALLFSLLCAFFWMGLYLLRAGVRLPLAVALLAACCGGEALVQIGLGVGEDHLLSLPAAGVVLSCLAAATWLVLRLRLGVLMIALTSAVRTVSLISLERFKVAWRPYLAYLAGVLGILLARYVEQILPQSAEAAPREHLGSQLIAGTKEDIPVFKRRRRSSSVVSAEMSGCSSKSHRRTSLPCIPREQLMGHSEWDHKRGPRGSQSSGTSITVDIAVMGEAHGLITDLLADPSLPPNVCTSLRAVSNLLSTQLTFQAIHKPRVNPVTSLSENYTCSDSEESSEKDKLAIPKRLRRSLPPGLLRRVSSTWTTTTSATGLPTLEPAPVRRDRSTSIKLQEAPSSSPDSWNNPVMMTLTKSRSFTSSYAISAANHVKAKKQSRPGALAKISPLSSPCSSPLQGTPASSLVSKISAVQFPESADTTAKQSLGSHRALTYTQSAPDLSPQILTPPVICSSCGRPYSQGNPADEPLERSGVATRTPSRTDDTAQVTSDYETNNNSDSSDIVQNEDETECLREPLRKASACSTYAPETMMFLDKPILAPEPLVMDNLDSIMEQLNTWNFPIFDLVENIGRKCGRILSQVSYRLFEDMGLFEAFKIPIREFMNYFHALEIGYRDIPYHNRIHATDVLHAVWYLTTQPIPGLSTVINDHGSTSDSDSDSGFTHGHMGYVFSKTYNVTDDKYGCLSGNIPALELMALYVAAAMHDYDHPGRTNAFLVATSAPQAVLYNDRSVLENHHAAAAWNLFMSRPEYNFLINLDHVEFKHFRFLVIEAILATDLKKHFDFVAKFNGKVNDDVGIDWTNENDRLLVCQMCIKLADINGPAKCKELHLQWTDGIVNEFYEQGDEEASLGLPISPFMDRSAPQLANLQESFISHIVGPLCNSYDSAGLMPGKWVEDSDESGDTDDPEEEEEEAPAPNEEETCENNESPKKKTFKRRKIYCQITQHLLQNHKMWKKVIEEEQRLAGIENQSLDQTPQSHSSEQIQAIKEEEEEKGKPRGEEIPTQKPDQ

pIC50: −log10 of the molar value.

Take `Cc1cc(Cc2nc3ccc(C(=O)O)cc3n2C[C@@H]2CCO2)c(F)cc1-c1cccc(OCc2ccc(C#N)cc2F)n1`: the pIC50 is 5.30.

These data come from US20240417393A1, “CERTAIN 2,5-DIAZABICYCLO[4.2.0]OCTANES AS GLP-1 RECEPTOR MODULATORS” (ASTRAZENECA AB, priority 2021, published 2024).
